{
  "source": "PubChem BioAssay AID1996",
  "details": "buffer; pH 7.4; 200.0 µM",
  "data": [
    {"compound": "CN(C)C(=O)c1c([N+](=O)[O-])cc([N+](=O)[O-])cc1[N+](=O)[O-]", "values": [
      {"measurement": "solubility kinetic", "value": "> 42.6", "unit": "µg/mL"}
    ]},
    {"compound": "Cc1nc2ccc3ccccc3c2o1.O=[N+]([O-])c1cc([N+](=O)[O-])c(O)c([N+](=O)[O-])c1", "values": [
      {"measurement": "solubility kinetic", "value": 24.7, "unit": "µg/mL"}
    ]},
    {"compound": "O=[N+]([O-])c1cc([N+](=O)[O-])c(O)c([N+](=O)[O-])c1.c1ccc(Oc2ccncc2)cc1", "values": [
      {"measurement": "solubility kinetic", "value": 57.5, "unit": "µg/mL"}
    ]},
    {"compound": "O=[N+]([O-])c1ccc2c(c1)C=Nc1ccccc1O2", "values": [
      {"measurement": "solubility kinetic", "value": 2.8, "unit": "µg/mL"}
    ]},
    {"compound": "CP(=O)(Nc1cccc(Br)c1)Oc1ccccc1", "note": "(stereo not drawn)", "values": [
      {"measurement": "solubility kinetic", "value": 46.3, "unit": "µg/mL"}
    ]},
    {"compound": "COc1ccccc1OP(C)(=O)Nc1ccccc1", "note": "(stereo not drawn)", "values": [
      {"measurement": "solubility kinetic", "value": "> 41.6", "unit": "µg/mL"}
    ]},
    {"compound": "CCc1ccc(OP(C)(=O)Nc2cccnc2)cc1", "note": "(stereo not drawn)", "values": [
      {"measurement": "solubility kinetic", "value": "> 41.4", "unit": "µg/mL"}
    ]},
    {"compound": "CP(=O)(Nc1ccc(Cl)cc1Cl)Oc1ccccc1", "note": "(stereo not drawn)", "values": [
      {"measurement": "solubility kinetic", "value": 39.9, "unit": "µg/mL"}
    ]}
  ]
}
